US10112926B2 (priority 2014, dated 2018)
Counter-ions that a name gives are not always drawn. Like-named read-outs stand apart in the source and are kept apart here.

Chains of the proteins cited; added tags and fusions are not shown. Lines headed by an entry give the natural chain unless they say otherwise; changes in a name come on top.
UniProt P42338: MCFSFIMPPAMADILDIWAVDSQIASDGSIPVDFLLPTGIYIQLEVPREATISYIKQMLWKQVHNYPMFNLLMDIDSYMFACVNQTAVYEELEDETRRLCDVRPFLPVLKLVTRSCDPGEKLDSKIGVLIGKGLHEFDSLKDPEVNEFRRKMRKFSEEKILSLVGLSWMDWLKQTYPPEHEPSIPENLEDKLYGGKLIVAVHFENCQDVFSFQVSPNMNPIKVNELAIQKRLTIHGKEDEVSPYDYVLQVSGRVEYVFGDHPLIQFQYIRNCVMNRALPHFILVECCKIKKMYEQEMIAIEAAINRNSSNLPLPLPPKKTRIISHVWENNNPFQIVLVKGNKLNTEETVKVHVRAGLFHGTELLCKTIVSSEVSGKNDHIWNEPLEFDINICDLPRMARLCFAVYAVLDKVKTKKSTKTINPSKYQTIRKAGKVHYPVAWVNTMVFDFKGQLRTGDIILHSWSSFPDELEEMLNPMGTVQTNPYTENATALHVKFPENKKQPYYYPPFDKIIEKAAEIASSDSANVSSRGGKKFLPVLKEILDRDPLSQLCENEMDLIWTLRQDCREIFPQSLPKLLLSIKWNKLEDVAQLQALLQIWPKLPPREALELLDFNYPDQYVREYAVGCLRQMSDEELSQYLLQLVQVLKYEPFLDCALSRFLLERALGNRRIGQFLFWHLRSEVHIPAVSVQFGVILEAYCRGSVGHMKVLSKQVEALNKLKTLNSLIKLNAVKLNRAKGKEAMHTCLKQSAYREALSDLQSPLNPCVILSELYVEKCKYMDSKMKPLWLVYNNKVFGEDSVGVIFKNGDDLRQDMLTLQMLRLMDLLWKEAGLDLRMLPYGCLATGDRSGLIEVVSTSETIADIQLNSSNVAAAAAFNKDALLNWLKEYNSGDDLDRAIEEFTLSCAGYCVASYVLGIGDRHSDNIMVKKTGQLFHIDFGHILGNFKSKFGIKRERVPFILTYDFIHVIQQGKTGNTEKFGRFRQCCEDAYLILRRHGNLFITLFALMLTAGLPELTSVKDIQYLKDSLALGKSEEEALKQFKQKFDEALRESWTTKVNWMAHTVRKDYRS
UniProt P42336, whole entry, looked up: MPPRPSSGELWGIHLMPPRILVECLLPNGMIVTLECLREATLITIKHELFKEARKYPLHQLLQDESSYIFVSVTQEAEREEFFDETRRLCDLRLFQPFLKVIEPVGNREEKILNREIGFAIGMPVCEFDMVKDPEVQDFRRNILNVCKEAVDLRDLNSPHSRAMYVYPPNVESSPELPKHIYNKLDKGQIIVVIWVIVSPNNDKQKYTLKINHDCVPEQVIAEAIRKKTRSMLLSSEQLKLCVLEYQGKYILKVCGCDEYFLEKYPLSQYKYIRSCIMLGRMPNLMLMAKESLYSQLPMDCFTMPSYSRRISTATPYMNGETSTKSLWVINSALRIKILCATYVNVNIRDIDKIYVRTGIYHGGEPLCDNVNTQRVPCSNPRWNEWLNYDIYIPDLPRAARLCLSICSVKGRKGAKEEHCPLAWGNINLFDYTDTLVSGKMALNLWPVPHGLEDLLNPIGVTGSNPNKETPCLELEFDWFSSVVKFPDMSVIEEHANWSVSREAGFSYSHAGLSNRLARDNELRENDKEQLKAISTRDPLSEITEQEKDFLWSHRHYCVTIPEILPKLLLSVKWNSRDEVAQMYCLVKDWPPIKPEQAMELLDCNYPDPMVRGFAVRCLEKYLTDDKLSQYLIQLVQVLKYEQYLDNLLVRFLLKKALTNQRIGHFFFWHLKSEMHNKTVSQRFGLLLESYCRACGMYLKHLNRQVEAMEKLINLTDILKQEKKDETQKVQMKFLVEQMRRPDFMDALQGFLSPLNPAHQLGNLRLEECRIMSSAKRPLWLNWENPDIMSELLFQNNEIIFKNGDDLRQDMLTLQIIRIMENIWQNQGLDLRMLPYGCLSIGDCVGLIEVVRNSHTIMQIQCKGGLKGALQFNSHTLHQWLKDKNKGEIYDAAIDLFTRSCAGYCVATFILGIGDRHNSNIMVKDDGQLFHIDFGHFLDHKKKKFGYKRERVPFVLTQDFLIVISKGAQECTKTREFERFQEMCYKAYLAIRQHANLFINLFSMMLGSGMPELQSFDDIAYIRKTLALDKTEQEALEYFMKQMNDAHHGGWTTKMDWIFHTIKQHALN

Columns and labels:
[1] = molecular target: T1, PI 3-kinase beta (Rat-1 pBABEpuro Myr-HA-hp110 beta cells) (Homo sapiens (Human), UniProt P42338); experiment: cell-based
PI 3-kinase beta = PI 3-kinase beta (Homo sapiens (Human), UniProt P42338); conditions: read-out: Assay B PI3Kβ IC50
[2] = molecular target: T1, PI 3-kinase beta (Rat-1 pBABEpuro Myr-HA-hp110 beta cells); experiment: cell-based; conditions: Assay I PI3Kβ IC50
PI 3-kinase alpha = PI 3-kinase alpha (Homo sapiens (Human), UniProt P42336); conditions: read-out: Assay A PI3Kα IC50
[3] = molecular target: PI 3-kinase alpha (Rat-1 pBABEpuro Myr-HA-hp110 alpha cells) (Homo sapiens (Human), UniProt P42336); experiment: cell-based; conditions: Assay H PI3Kα IC50

## Cc1ccc(S(=O)(=O)NCC(C)(C)O)cc1-c1cnc(N)c(-c2cnn(C)c2C)c1 [Example 61, 3-(6-Amino-5-(1,5-dimethyl-1H-pyrazol-4-yl)pyridin-3-yl)-N-(2-hydroxy-2-methylpropyl)-4-methylbenzenesulfonamide]
[1]
  IC50: > 10000 nM
PI 3-kinase beta
  IC50: 1300 nM

## Cc1noc(-c2cc(-c3cc(S(=O)(=O)NC[C@@H]4CCOC4)ccc3C)cnc2N)n1 [Example 87, (S)-3-(6-Amino-5-(3-methyl-1,2,4-oxadiazol-5-yl)pyridin-3-yl)-4-methyl-N-((tetrahydrofuran-3-yl)methyl)benzenesulfonamide]
[1]
  IC50: > 10000 nM

## Cc1cc(-c2cc(-c3cc(S(=O)(=O)N4CC(N(C)C)C4)ccc3C)cnc2N)on1 [Example 19.19, 5-(5-((3-(dimethylamino)azetidin-1-yl)sulfonyl)-2-methylphenyl)-3-(3-methylisoxazol-5-yl)pyridin-2-amine acetic acid salt]
[1]
  IC50: > 10000 nM
PI 3-kinase beta
  IC50: 6100 nM

## Cc1ncc(-c2cc(-c3cc(S(=O)(=O)NCC4(C)COC4)ccc3C)cnc2N)o1 [Example 69, 3-(6-Amino-5-(2-methyloxazol-5-yl)pyridin-3-yl)-4-methyl-N-((3-methyloxetan-3-yl)methyl)benzenesulfonamide]
[2]
  IC50: 2700 nM
PI 3-kinase alpha
  IC50: 320 nM
PI 3-kinase beta
  IC50: 2200 nM
[3]
  IC50: > 10000 nM

## Cc1cc(-c2cc(-c3cc(S(=O)(=O)NC4CC4)ccc3C)cnc2N)on1 [Example 31, 3-(6-Amino-5-(3-methylisoxazol-5-yl)pyridin-3-yl)-N-cyclopropyl-4-methylbenzenesulfonamide]
[2]
  IC50: > 10000 nM
PI 3-kinase alpha
  IC50: 530 nM
PI 3-kinase beta
  IC50: 3630 nM
[3]
  IC50: 1940 nM

## Cc1noc(-c2cc(-c3cc(S(=O)(=O)NOC(C)C)ccc3C)cnc2N)n1 [Example 45, 3-(6-Amino-5-(3-methyl-1,2,4-oxadiazol-5-yl)pyridin-3-yl)-N-isopropoxy-4-methylbenzenesulfonamide]
[2]
  IC50: 2930 nM
PI 3-kinase alpha
  IC50: 230 nM
PI 3-kinase beta
  IC50: 2600 nM
[3]
  IC50: > 10000 nM

## Cc1ccc(S(=O)(=O)N[C@H]2CC[C@H](O)CC2)cc1-c1cnc(N)c(-c2cnn(C)n2)c1 [Example 4.5, trans 3-(6-Amino-5-(2-methyl-2H-1,2,3-triazol-4-yl)pyridin-3-yl)-N-(4-hydroxycyclohexyl)-4-methylbenzene sulfonamide hydrochloride]
[2]
  IC50: > 10000 nM
PI 3-kinase alpha
  IC50: 250 nM
PI 3-kinase beta
  IC50: 2800 nM
[3]
  IC50: > 10000 nM

## CCc1noc(-c2cc(-c3cc(S(=O)(=O)NCC(C)(C)O)ccc3C)cnc2N)n1 [Example 5.3, 3-(6-Amino-5-(3-ethyl-1,2,4-oxadiazol-5-yl)pyridin-3-yl)-N-(2-hydroxy-2-methylpropyl)-4-methylbenzenesulfon-amide hydrochloride]
[2]
  IC50: > 10000 nM
PI 3-kinase alpha
  IC50: 1400 nM
PI 3-kinase beta
  IC50: 5000 nM
[3]
  IC50: 7560 nM

## Cc1ccc(S(=O)(=O)NCC(C)(C)O)cc1-c1cnc(N)c(-c2nc(C3CC3)no2)c1 [Example 80, 3-(6-Amino-5-(3-cyclopropyl-1,2,4-oxadiazol-5-yl)pyridin-3-yl)-N-(2-hydroxy-2-methylpropyl)-4-methylbenzenesulfonamide hydrochloride]
[2]
  IC50: 2970 nM
PI 3-kinase alpha
  IC50: 900 nM
PI 3-kinase beta
  IC50: 4650 nM
[3]
  IC50: 5860 nM

## Cc1noc(-c2cc(-c3cc(S(=O)(=O)NC4CCOCC4)ccc3C)cnc2N)n1 [Example 49, 3-(6-Amino-5-(3-methyl-1,2,4-oxadiazol-5-yl)pyridin-3-yl)-4-methyl-N-(tetrahydro-2H-pyran-4-yl)benzenesulfonamide]
[2]
  IC50: 9560 nM
PI 3-kinase alpha
  IC50: 270 nM
PI 3-kinase beta
  IC50: 2100 nM
[3]
  IC50: > 10000 nM

## Cc1noc(-c2cc(-c3cc(S(=O)(=O)NCC4(CO)CCC4)ccc3C)cnc2N)n1 [Example 37.26, 3-(6-Amino-5-(3-methyl-1,2,4-oxadiazol-5-yl)pyridin-3-yl)-N-((1-(hydroxymethyl)cyclobutyl)methyl)-4-methylbenzenesulfonamide]
[2]
  IC50: 2890 nM
PI 3-kinase alpha
  IC50: 720 nM
PI 3-kinase beta
  IC50: 3100 nM
[3]
  IC50: 2230 nM

## Cc1ccc(S(=O)(=O)NCCC(C)(C)O)cc1-c1cnc(N)c(-c2cnn(C)c2)c1 [Example 2, 3-(6-Amino-5-(1-methyl-1H-pyrazol-4-yl)pyridin-3-yl)-N-(3-hydroxy-3-methylbutyl)-4-methylbenzenesulfonamide]
[2]
  IC50: 9190 nM
PI 3-kinase alpha
  IC50: 530 nM
PI 3-kinase beta
  IC50: 3150 nM
[3]
  IC50: 7750 nM

## Cc1ccc(S(=O)(=O)NOCC(C)(C)O)cc1-c1cnc(N)c(-c2cnn(CC(F)(F)F)c2)c1 [Example 34, 3-(6-Amino-5-(1-(2,2,2-trifluoroethyl)-1H-pyrazol-4-yl)pyridin-3-yl)-N-(2-hydroxy-2-methylpropoxy)-4-methylbenzenesulfonamide hydrochloride]
[2]
  IC50: 1240 nM
PI 3-kinase alpha
  IC50: 70 nM
PI 3-kinase beta
  IC50: 850 nM
[3]
  IC50: 540 nM

## Cc1ccc(S(=O)(=O)N[C@H]2CC[C@H](O)CC2)cc1-c1cnc(N)c(-c2cc(C(C)(C)C)no2)c1 [Example 35.2, trans-3-(6-Amino-5-(3-(tert-butyl)isoxazol-5-yl)pyridin-3-yl)-N-(−4-hydroxycyclohexyl)-4-methylbenzenesulfonamide hydrochloride]
[2]
  IC50: 6390 nM
PI 3-kinase alpha
  IC50: 270 nM
PI 3-kinase beta
  IC50: 6700 nM
[3]
  IC50: > 3000 nM

## Cc1ccc(S(=O)(=O)N[C@H]2CC[C@H](O)CC2)cc1-c1cnc(N)c(-c2nc(C(F)F)no2)c1 [Example 70, 3-(6-Amino-5-(3-(difluoromethyl)-1,2,4-oxadiazol-5-yl)pyridin-3-yl)-N-((1r,4r)-4-hydroxycyclohexyl)-4-methylbenzenesulfonamide hydrochloride]
[2]
  IC50: > 3000 nM
PI 3-kinase alpha
  IC50: 580 nM
PI 3-kinase beta
  IC50: 4400 nM
[3]
  IC50: > 6500 nM

## Cc1noc(-c2cc(-c3cc(S(=O)(=O)NCC4(CO)CCOCC4)ccc3C)cnc2N)n1 [Example 37.10, 3-(6-Amino-5-(3-methyl-1,2,4-oxadiazol-5-yl)pyridin-3-yl)-N-((4-(hydroxymethyl)tetrahydro-2H-pyran-4-yl)methyl)-4-methylbenzenesulfonamide]
[2]
  IC50: > 10000 nM
PI 3-kinase alpha
  IC50: 560 nM
PI 3-kinase beta
  IC50: 9100 nM
[3]
  IC50: 1410 nM

## Cc1ccc(S(=O)(=O)NCCC(C)(C)O)cc1-c1cnc(N)c(-c2cnn(CC(F)(F)F)c2)c1 [Example 3, 3-(6-Amino-5-(1-(2,2,2-trifluoroethyl)-1H-pyrazol-4-yl)pyridin-3-yl)-N-(3-hydroxy-3-methylbutyl)-4-methylbenzenesulfonamide]
[2]
  IC50: 3030 nM
PI 3-kinase alpha
  IC50: 770 nM
PI 3-kinase beta
  IC50: 2040 nM
[3]
  IC50: 1910 nM

## Cc1cc(-c2cc(-c3cc(S(=O)(=O)NC4CCOCC4)ccc3C)cnc2N)on1 [Example 37.8, 3-(6-Amino-5-(3-methylisoxazol-5-yl)pyridin-3-yl)-4-methyl-N-(tetrahydro-2H-pyran-4-yl)benzenesulfonamide]
[2]
  IC50: > 10000 nM
PI 3-kinase alpha
  IC50: 300 nM
PI 3-kinase beta
  IC50: 4800 nM
[3]
  IC50: > 10000 nM

## Cc1cc(-c2cc(-c3cc(S(=O)(=O)N4CC(CO)C4)ccc3C)cnc2N)on1 [Example 37.12, (1-((3-(6-Amino-5-(3-methylisoxazol-5-yl)pyridin-3-yl)-4-methylphenyl)sulfonyl)azetidin-3-yl)methanol]
[2]
  IC50: > 10000 nM
PI 3-kinase alpha
  IC50: 810 nM
PI 3-kinase beta
  IC50: 6700 nM
[3]
  IC50: 7620 nM
